# Target: LRRK2(G2019S mutation, GST-LRRK2(amino acids 970-2527)) (Homo sapiens (Human), UniProt Q5S007, G2019S)
# The chains behind the UniProt entries cited, without tags or fusion partners. Residues count along the entry.
# UniProt Q5S007, 970-2527 G2019S limits assumed: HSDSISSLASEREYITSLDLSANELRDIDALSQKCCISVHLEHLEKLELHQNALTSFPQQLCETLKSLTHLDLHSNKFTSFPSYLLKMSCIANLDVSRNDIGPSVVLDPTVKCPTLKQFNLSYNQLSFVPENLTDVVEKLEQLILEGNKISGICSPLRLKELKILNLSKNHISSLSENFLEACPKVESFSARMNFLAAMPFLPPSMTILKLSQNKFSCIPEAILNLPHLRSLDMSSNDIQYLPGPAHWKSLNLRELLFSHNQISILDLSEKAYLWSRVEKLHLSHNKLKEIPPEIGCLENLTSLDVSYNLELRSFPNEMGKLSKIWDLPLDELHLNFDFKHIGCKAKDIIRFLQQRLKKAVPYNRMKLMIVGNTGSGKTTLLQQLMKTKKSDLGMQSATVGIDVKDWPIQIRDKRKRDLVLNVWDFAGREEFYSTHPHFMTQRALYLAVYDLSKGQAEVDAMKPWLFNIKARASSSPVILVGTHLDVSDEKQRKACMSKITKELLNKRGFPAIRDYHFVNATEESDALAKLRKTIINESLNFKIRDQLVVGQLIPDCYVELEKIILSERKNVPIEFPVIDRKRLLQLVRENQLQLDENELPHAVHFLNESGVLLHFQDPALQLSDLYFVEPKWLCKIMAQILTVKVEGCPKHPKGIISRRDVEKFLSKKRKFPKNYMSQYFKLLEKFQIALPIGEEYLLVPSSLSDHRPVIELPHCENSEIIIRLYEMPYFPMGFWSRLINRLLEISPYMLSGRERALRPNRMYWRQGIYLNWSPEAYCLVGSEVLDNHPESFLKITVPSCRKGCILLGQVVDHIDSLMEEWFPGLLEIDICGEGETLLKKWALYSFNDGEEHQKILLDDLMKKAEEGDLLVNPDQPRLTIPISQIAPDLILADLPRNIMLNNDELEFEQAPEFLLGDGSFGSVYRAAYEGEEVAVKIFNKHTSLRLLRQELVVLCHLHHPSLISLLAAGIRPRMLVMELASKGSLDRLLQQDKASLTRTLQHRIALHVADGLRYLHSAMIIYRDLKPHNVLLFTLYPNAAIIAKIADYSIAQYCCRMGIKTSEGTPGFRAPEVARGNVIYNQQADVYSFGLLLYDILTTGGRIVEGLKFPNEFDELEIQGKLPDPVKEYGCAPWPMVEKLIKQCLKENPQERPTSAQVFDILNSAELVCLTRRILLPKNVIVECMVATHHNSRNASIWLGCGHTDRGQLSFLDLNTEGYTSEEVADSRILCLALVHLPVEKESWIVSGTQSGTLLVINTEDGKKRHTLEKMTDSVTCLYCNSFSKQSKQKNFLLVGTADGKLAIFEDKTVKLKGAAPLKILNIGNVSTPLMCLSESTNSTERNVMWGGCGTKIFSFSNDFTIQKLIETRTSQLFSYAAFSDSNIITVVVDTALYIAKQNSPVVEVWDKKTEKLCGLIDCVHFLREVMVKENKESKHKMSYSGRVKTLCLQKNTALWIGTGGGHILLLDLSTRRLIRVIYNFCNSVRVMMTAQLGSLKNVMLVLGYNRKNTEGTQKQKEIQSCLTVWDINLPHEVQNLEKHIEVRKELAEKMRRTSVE
# Assay: LRRK2 Km ATP LanthaScreen Assay
# Details: read-out: LRRK2 IC50, mean IC50
row,Compound,IC50 [nM]
1,OCC1(Oc2ccc3[nH]nc(-c4cc(N5CCOCC5)ncn4)c3c2)CC1,2.9
2,C[C@@H]1CN(c2cc(-c3n[nH]c4ccc(OC5(C)CC5)cc34)ncn2)C[C@H](C)N1S(C)(=O)=O,5.2
3,COC(=O)C1(Oc2ccc3[nH]nc(-c4cc(N5CCOCC5)ncn4)c3c2)CC1,21.7
4,CN1CCN(c2cc(-c3n[nH]c4ccc(OC5(C)CC5)cc34)ncn2)CC12CC2,0.6

# More lines, now with the values ahead:
row,IC50 [nM],Compound
1,0.7,CC(O)[C@@H]1CN(c2cc(-c3n[nH]c4ccc(OC5(C)CC5)cc34)ncn2)CCO1 (stereo partly shown)
2,1.9,COC[C@@H]1CN(c2cc(-c3n[nH]c4ccc(OC5(C)CC5)cc34)ncn2)CCO1
3,2.8,COCC1(Oc2ccc3[nH]nc(-c4cc(N5CCOCC5)ncn4)c3c2)CC1
